Test results: patent US20250034136A1 (Nimbus Wadjet, Inc., priority 2023, published 2025)

Amino acid sequences for entries named in this document (tags omitted). A change or cut given only in a name is not applied to a line headed by its entry.
UniProt Q14191: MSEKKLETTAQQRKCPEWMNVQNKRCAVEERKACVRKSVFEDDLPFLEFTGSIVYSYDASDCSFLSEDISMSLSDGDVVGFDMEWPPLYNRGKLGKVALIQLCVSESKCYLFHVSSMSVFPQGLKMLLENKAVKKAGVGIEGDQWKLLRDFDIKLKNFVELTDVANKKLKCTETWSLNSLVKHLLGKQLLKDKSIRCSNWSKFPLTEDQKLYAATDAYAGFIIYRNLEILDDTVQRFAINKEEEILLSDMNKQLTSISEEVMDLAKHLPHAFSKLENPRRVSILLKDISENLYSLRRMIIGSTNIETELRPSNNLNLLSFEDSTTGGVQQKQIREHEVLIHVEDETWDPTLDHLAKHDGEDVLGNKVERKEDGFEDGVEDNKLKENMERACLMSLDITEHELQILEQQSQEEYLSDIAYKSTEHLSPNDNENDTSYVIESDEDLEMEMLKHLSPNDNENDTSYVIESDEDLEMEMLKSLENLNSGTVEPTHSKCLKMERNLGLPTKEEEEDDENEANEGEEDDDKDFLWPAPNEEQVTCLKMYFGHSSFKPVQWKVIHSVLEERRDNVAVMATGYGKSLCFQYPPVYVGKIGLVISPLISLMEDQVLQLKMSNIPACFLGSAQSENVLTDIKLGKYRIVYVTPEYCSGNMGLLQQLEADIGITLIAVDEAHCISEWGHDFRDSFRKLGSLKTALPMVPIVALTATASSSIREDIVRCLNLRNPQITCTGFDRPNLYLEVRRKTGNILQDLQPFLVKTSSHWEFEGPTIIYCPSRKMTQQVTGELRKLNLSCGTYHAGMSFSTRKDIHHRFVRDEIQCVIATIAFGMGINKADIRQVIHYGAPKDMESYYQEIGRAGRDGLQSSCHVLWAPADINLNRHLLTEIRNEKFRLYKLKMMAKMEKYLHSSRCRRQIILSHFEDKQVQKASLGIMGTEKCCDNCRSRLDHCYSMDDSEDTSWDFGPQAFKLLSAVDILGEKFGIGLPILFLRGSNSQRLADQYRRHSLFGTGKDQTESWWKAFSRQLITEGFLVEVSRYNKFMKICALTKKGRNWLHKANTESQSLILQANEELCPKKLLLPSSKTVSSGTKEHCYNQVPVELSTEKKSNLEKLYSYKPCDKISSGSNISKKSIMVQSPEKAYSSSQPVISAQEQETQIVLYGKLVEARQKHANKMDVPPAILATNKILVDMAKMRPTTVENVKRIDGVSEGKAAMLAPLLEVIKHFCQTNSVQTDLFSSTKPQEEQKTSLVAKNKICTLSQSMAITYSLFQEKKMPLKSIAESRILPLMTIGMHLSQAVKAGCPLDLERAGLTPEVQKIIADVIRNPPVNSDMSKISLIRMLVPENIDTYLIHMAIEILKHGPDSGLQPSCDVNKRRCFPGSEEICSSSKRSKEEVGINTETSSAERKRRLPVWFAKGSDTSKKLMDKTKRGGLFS

Molecular target: WRN (BV08), human Werner helicase (Uniprot Q14191, amino acids 517-1235 with L1074F point mutation) (Homo sapiens (Human), UniProt Q14191, L1074F)
Assay: WRN (BV08) ADP-Glo assay
Type: biochemical
Conditions: class symbols A-E, read-out: ADP-Glo_hWRN_IC50
Description: Bovine skin gelatin (BSG), dimethyl sulfoxide (DMSO), Pluronic F-127 and tris(2-carboxyethyl)phosphine hydrochloride solution (TCEP) were purchased from Sigma-Aldrich (St. Louis, MO) at the highest level of purity possible. […] DNA strands were annealed by heating to 95° C. for 5 minutes followed by slow cooling to room temperature. Compounds in 100% DMSO (0.1 μl) were spotted into a 384-well white polystyrene Optiplate-384 (Perkin Elmer; Waltham, MA) assay plate using a LabCyte Echo 550 (Agilent; Santa Clara, CA). DMSO (0.1 μl) was added to columns 12, rows A-H and column 24, rows I-P for the maximum signal control. […] Compounds/DMSO were preincubated for 15 minutes at 25° C. with 5 μl 2×WRN (BV08), prepared as described below, in assay buffer containing 20 mM Bicine (pH=7.5), 1 mM MgCl2, 10 mM KCl, 0.1% Pluronic F-127, 0.005% BSG, 1 mM TCEP. The reaction was initiated by the addition of 5 μl 2× substrate mixture in assay buffer and incubated for 60 minutes at 25° C. […] The reaction was stopped by the addition of the ADP-Glo Kit components (Promega; Madison, WI) as directed and the relative luminescence units (RLU) were read on an Envision 2104 (Perkin Elmer; Waltham, MA). % inhibition calculation:
[formula] • Where RLU=relative luminescence units, sample=signal in sample well, and MIN and MAX are the respective minimum and maximum signal controls. […]

| SMILES | IC50 |
| --- | --- |
| CCc1c(N2CCN(C(=O)c3ncnc(C)c3O)[C@@H]3CC[C@H]32)c(=O)c2nc(N(C)C)cnc2n1CC(=O)Nc1ccc(C(F)(F)F)cc1Cl (single isomer, unassigned) [I-39, N-(2-chloro-4-(trifluoromethyl)phenyl)-2-(2-(dimethylamino)-6-ethyl-7-(−5-(5-hydroxy-6-methylpyrimidine-4-carbonyl)-2,5-diazabicyclo[4.2.0]octan-2-yl)-8-oxopyrido[2,3-b]pyrazin-5(8H)-yl)acetamide] | 0.05 to 0.1 µM |
| [2H]C([2H])([2H])N(c1cnc2c(n1)c(=O)c(N1CCN(C(=O)c3ncnc(C)c3O)[C@H]3CC[C@@H]31)c(CC)n2CC(=O)Nc1ccc(C(F)(F)F)cc1Cl)C([2H])([2H])[2H] [I-101, 2-(2-(bis(methyl-d3)amino)-6-ethyl-7-((1S,6S)-5-(5-hydroxy-6-methylpyrimidine-4-carbonyl)-2,5-diazabicyclo[4.2.0]octan-2-yl)-8-oxopyrido[2,3-b]pyrazin-5(8H)-yl)-N-(2-chloro-4-(trifluoromethyl)phenyl)acetamide] | 0.005 to 0.05 µM |
